# In paper PMC5522751 (Bioorganic & medicinal chemistry, 2017):
# Protein sequences, listed by entry. Tags and fused reporters are not part of them. Lines headed by an entry give the natural chain unless they say otherwise; changes in a name come on top.
# UniProt P28072: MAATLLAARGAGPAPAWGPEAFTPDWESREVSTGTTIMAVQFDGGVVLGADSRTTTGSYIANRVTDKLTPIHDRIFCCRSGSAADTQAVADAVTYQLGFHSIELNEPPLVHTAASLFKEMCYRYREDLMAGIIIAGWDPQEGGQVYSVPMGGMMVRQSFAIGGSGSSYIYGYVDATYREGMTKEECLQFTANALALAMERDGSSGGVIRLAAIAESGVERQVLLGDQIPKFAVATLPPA
# UniProt Q99436: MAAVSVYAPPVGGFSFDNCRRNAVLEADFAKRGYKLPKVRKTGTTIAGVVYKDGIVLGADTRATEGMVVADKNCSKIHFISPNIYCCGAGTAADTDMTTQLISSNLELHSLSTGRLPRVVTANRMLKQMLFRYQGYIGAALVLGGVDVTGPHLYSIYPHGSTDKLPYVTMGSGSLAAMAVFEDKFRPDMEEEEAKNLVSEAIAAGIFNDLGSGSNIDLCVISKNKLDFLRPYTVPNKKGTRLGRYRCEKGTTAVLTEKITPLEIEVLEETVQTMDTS
# Target: human 20S proteasome caspase-like (C-L, β1) site (Homo sapiens, UniProt P28072+Q99436)
# Assay: Fluorogenic assay for 20S human proteasome inhibition, caspase-like site
# Assay type: biochemical
row,SMILES,IC50 [µM]
1,CCCCCC[C@@H]1C(=O)O[C@H]1C(=O)NCCCC[C@H](NC(=O)[C@H](C)NC(=O)c1ccc(Br)cc1)C(=O)OCc1ccccc1 [compound 20],2.81 ± 0.24
2,CCCCCC[C@]1(C)C(=O)O[C@H]1C(=O)NCCCC[C@H](NC(=O)[C@H](C)NC(=O)OCc1ccccc1)C(=O)OCc1ccccc1 [compound 25],3.74 ± 0.04
3,CCCCCC[C@@]1(C)C(=O)O[C@@H]1C(=O)NCCCC[C@H](NC(=O)[C@H](C)NC(=O)OCc1ccccc1)C(=O)OCc1ccccc1 [compound 26],3.98 ± 0.63
4,CCCCCC[C@@]1(C)C(=O)O[C@H]1C(=O)NCCCC[C@H](NC(=O)[C@H](C)NC(=O)OCc1ccccc1)C(=O)OCc1ccccc1 [compound 27],3.62 ± 0.08
